Data taken from patent US11304949B2, “Treatment of hidradenitis suppurativa using JAK inhibitors” (Incyte Corporation, priority 2018, dated 2022).
pIC50: −log10 of the molar value.

Biological target: human JAK1 (a.a. 837-1142) (Homo sapiens, UniProt P23458)
Assay: In vitro JAK kinase assay (HTRF), JAK1
Assay type: biochemical
Conditions: 1 mM ATP

pIC50: > 8.00
Compound: CN(C)Cc1cc(F)cc(OC2CCN(CC(CC#N)n3cc(-c4ncnc5[nH]ccc45)cn3)CC2)c1 (single isomer, unassigned) [Compound 14, 4-(4-{3-[(dimethylamino)methyl]-5-fluorophenoxy}piperidin-1-yl)-3-[4-(7H-pyrrolo[2,3-d]pyrimidin-4-yl)-1H-pyrazol-1-yl]butanenitrile]
